The chains are these.
B1: BCY00009245 (peptide)
peptide: ACVPCADFPIWYC
modifications: N-terminal acetyl (Ac); Cys 2, 5 and 13 thioether-linked to TBMB scaffold
notes: bicyclic peptide on trimethylene benzene (TBMB) scaffold, all three linkages thioether; also called Ac-A-(66-03-00)(TBMB) Val1 Tyr9
B2: 66-08-57-N001 (peptide)
peptide: ACFELDGECFNIGSKCA
modifications: three Cys thioether-linked to TBMB scaffold
notes: bicyclic
B3: 66-08-29-N001 (peptide)
peptide: ACFRLDGVCFDLDDECA
modifications: three Cys thioether-linked to TBMB scaffold
notes: bicyclic
B4: 66-08-44-N001 (peptide)
peptide: ACFHLDGECFDLENTCA
modifications: three Cys thioether-linked to TBMB scaffold
notes: bicyclic
B5: 66-08-36-N001 (peptide)
peptide: ACFHLDGVCFDWTHECA
modifications: three Cys thioether-linked to TBMB scaffold
notes: bicyclic
B6: 66-08-28-N001 (peptide)
peptide: ACFRLDDECFDWTHECA
modifications: three Cys thioether-linked to TBMB scaffold
notes: bicyclic
B7: 66-08-22-N001 (peptide)
peptide: ACFSLDGECFDIASECA
modifications: three Cys thioether-linked to TBMB scaffold
notes: bicyclic
B8: 66-08-51-N001 (peptide)
peptide: ACFELDGECFSWPYPCA
modifications: three Cys thioether-linked to TBMB scaffold
notes: bicyclic
B9: 66-08-58-N001 (peptide)
peptide: ACFWLDGECFDFGGCA
modifications: three Cys thioether-linked to TBMB scaffold
notes: bicyclic
B10: 66-08-56-N001 (peptide)
peptide: ACFRLDGECFDISNECA
modifications: three Cys thioether-linked to TBMB scaffold
notes: bicyclic
B11: 66-08-30-N001 (peptide)
peptide: ACFRLDGECFDMGQECA
modifications: three Cys thioether-linked to TBMB scaffold
notes: bicyclic
B12: 66-08-49-N001 (peptide)
peptide: ACFLLDGECFDLIGECA
modifications: three Cys thioether-linked to TBMB scaffold
notes: bicyclic
B13: 66-08-47-N001 (peptide)
peptide: ACFVLDGECFEIGERCA
modifications: three Cys thioether-linked to TBMB scaffold
notes: bicyclic
B14: 66-08-18-N001 (peptide)
peptide: ACFELDGNCFDWTHECA
modifications: three Cys thioether-linked to TBMB scaffold
notes: bicyclic
B15: 66-08-34-N001 (peptide)
peptide: ACFELDGDCFDWTHECA
modifications: three Cys thioether-linked to TBMB scaffold
notes: bicyclic
B16: 66-08-53-N001 (peptide)
peptide: ACFWLDGECFDLGGQCA
modifications: three Cys thioether-linked to TBMB scaffold
notes: bicyclic
B17: 66-08-31-N001 (peptide)
peptide: ACFTLDGACFDLDGECA
modifications: three Cys thioether-linked to TBMB scaffold
notes: bicyclic
B18: 66-08-27-N001 (peptide)
peptide: ACFVLDGECFDYYEECA
modifications: three Cys thioether-linked to TBMB scaffold
notes: bicyclic
B19: 66-08-46-N001 (peptide)
peptide: ACFELDGECFHFGEPCA
modifications: three Cys thioether-linked to TBMB scaffold
notes: bicyclic
B20: 66-08-20-N001 (peptide)
peptide: ACFHLDGECFDYEHECA
modifications: three Cys thioether-linked to TBMB scaffold
notes: bicyclic
B21: 66-08-55-N001 (peptide)
peptide: ACFWLDGECFDLYGGCA
modifications: three Cys thioether-linked to TBMB scaffold
notes: bicyclic
B22: 66-08-33-N001 (peptide)
peptide: ACFLLDGECFDWMQECA
modifications: three Cys thioether-linked to TBMB scaffold
notes: bicyclic
B23: 66-08-43-N001 (peptide)
peptide: ACFLLDGECFDWAQECA
modifications: three Cys thioether-linked to TBMB scaffold
notes: bicyclic
B24: 66-08-24-N001 (peptide)
peptide: ACFQLDGECFDTSHECA
modifications: three Cys thioether-linked to TBMB scaffold
notes: bicyclic
B25: 66-08-48-N001 (peptide)
peptide: ACFTLDGECFDLDGWCA
modifications: three Cys thioether-linked to TBMB scaffold
notes: bicyclic
B26: 66-08-50-N001 (peptide)
peptide: ACFELDGECFSFPGTCA
modifications: three Cys thioether-linked to TBMB scaffold
notes: bicyclic
B27: 66-08-45-N001 (peptide)
peptide: ACFHLDGECFDLAKTCA
modifications: three Cys thioether-linked to TBMB scaffold
notes: bicyclic
B28: 66-08-54-N001 (peptide)
peptide: ACFELDGECFDLDNQCA
modifications: three Cys thioether-linked to TBMB scaffold
notes: bicyclic
B29: 66-08-17-N001 (peptide)
peptide: ACFQLDGECFDIYRECA
modifications: three Cys thioether-linked to TBMB scaffold
notes: bicyclic
B30: 66-50-11-N001 (peptide)
peptide: ACYWNPFMACFDCA
modifications: three Cys thioether-linked to TATA scaffold
notes: bicyclic
B31: 66-50-05-N001 (peptide)
peptide: ACYWNPFTACYTCA
modifications: three Cys thioether-linked to TATA scaffold
notes: bicyclic
B32: 66-50-22-T001-N001 (peptide)
peptide: ACYWNPFTACWSCDTS
modifications: three Cys thioether-linked to TATA scaffold
notes: bicyclic; also called 66-50-22-T01-N001
B33: 66-50-20-T001-N001 (peptide)
peptide: ACYWNPFTACWACEPD
modifications: three Cys thioether-linked to TATA scaffold
notes: bicyclic; also called 66-50-20-T01-N001
B34: 66-50-03-N001 (peptide)
peptide: ACYWNPFIQCSPCA
modifications: three Cys thioether-linked to TATA scaffold
notes: bicyclic
B35: 66-50-12-N001 (peptide)
peptide: ACYWNPFMGCYSCA
modifications: three Cys thioether-linked to TATA scaffold
notes: bicyclic
B36: 66-50-01-N001 (peptide)
peptide: ACYWNPFMGCYTCA
modifications: three Cys thioether-linked to TATA scaffold
notes: bicyclic
B37: 66-50-14-N001 (peptide)
peptide: ACYWNPFMGCYVCA
modifications: three Cys thioether-linked to TATA scaffold
notes: bicyclic
B38: 66-50-07-N001 (peptide)
peptide: ACYWNPFSGCYSCA
modifications: three Cys thioether-linked to TATA scaffold
notes: bicyclic
B39: 66-50-02-N001 (peptide)
peptide: ACYWNPFTGCYSCA
modifications: three Cys thioether-linked to TATA scaffold
notes: bicyclic
B40: 66-50-17-T02-N001 (peptide)
peptide: ARNECFWNPFTGCYSCA
modifications: three Cys thioether-linked to TATA scaffold
notes: bicyclic
B41: 66-50-21-T001-N001 (peptide)
peptide: ACYWNPFTACFACEEP
modifications: three Cys thioether-linked to TATA scaffold
notes: bicyclic; also called 66-50-21-T01-N001
B42: 66-50-09-N001 (peptide)
peptide: ACLYNPFTGCYDCA
modifications: three Cys thioether-linked to TATA scaffold
notes: bicyclic
B43: 66-50-19-T001-N001 (peptide)
peptide: ACYWNPFTACYVCDVP
modifications: three Cys thioether-linked to TATA scaffold
notes: bicyclic; also called 66-50-19-T01-N001
B44: 66-50-17-T01-N001 (peptide)
peptide: ASDNCFWNPFTGCYSCA
modifications: three Cys thioether-linked to TATA scaffold
notes: bicyclic
B45: 66-50-15-T01-N001 (peptide)
peptide: ACYWNPFTGCYACDST
modifications: three Cys thioether-linked to TATA scaffold
notes: bicyclic
B46: 66-50-10-N001 (peptide)
peptide: ACYWNPFSGCWDCA
modifications: three Cys thioether-linked to TATA scaffold
notes: bicyclic
B47: 66-50-15-T02-N001 (peptide)
peptide: ACYWNPFTGCYACEAD
modifications: three Cys thioether-linked to TATA scaffold
notes: bicyclic
B48: 66-50-06-N001 (peptide)
peptide: ACYWNPFAACYDCA
modifications: three Cys thioether-linked to TATA scaffold
notes: bicyclic
B49: 66-50-18-T01-N001 (peptide)
peptide: ACYWNPFTACFSCDDD
modifications: three Cys thioether-linked to TATA scaffold
notes: bicyclic
B50: 66-50-08-N001 (peptide)
peptide: ACMWNPFTGCYACA
modifications: three Cys thioether-linked to TATA scaffold
notes: bicyclic

By UniProt entry, the sequences of proteins in these tests, tags left out. Residues count along the entry.
UniProt P28907, 43-300 limits assumed: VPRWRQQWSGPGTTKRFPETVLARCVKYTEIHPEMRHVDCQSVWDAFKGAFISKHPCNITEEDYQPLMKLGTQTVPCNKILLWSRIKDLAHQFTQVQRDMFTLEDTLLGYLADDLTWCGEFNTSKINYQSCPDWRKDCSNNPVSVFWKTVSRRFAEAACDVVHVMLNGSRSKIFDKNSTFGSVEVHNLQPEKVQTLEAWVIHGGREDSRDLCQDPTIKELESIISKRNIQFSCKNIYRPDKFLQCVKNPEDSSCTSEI

What is called Ki is a measure of affinity in units of concentration, obtained from inhibition or displacement. A high value points to a looser hold on the target.

For the first assay, the target named is T1, human CD38 (human, UniProt P28907 43-300, limits assumed).
T1 construct: construct used is not described; also called hCD38
The assay can be described thus: fluorescence polarisation competition; tracer m10. How it is done: (§1) CD38 Competition Binding Assay Affinity of various bicycle peptide compounds for human CD38 (Ki) was determined using a fluorescence polarisation assay, using the method reported by Lea et al (Expert Opin Drug Discov. 2011 6(1): 17-3) and using the following fluorescently labelled peptides […]-Sar₆-K(F1) for TBMB derivatives and […]-Sar₆-K(F1) for TATA derivatives where Fl is a fluorescein molecule.
In general terms: In fluorescence polarisation assays a small probe gives low polarisation when free and higher when bound to something large.
In turn, B1 gave a Ki of 0.035 µM.

The next assay deals with T1, human CD38. The assay can be described thus: fluorescence polarisation competition; tracer m10. The source holds these as a separate data set. How it is done:
as §1
With B1, affinity was put at a Ki of 0.0268 µM.

The target in the next assay is T1, human CD38. The experiment in a line: fluorescence polarisation competition; tracer m10. The source holds these as a separate data set.
Molecule B2 gave a Ki of 1.1 µM.

On to B3, for which affinity was put at a Ki of 0.988 µM.

With B4, the inhibitory constant (Ki) came out at 0.62 µM.

Consider B5, for which the Ki was determined as 0.558 µM.

As to B6, the affinity corresponds to a Ki of 1.17 µM.

B7 registered a Ki of 1.04 µM.

B8 returned a Ki of 4.75 µM.

In turn, B9 displayed a Ki of 0.154 µM.

For B10, the Ki stood at 1.15 µM.

Molecule B11 registered a Ki of 6.95 µM.

Molecule B12 yielded a Ki of 1.36 µM.

For B13, the Ki stood at 0.238 µM.

In turn, B14 displayed a Ki of 0.98 µM.

B15 registered a Ki of 1.62 µM.

The molecule B16 showed a Ki of 0.119 µM.

Regarding B17, the Ki came out at 0.821 µM.

Consider B18, for which the Ki is 1.22 µM.

B19 had a Ki of 1.04 µM.

B20 yielded a Ki of 2.16 µM.

Turning to B21, the Ki was determined as 0.105 µM.

B22 yielded a Ki of 0.409 µM.

Molecule B23 registered a Ki of 0.131 µM.

B24 had a Ki of 2.97 µM.

B25 displayed a Ki of 0.178 µM.

For B26, affinity was put at a Ki of 0.197 µM.

Take B27: the Ki was 8.19 µM.

As for B28, affinity was put at a Ki of 0.477 µM.

B29 had a Ki of 0.245 µM.

For the next assay, the target named is T1, human CD38. The experiment in a line: fluorescence polarisation competition; tracer m11.
B30 showed a Ki of 0.684 µM.

As for B31, the Ki stood at 0.438 µM.

B32 yielded a Ki of 0.182 µM.

For the molecule B33, the Ki came to 0.085 µM.

In turn, B34 returned a Ki of 1.7 µM.

Consider B35, for which affinity was put at a Ki of 0.315 µM.

Molecule B36 showed a Ki of 0.393 µM.

Regarding B37, affinity was put at a Ki of 0.94 µM.

With B38, the Ki is 0.497 µM.

Regarding B39, the Ki was 0.0978 µM.

The molecule B40 returned a Ki of 0.26 µM.

B41: affinity was put at a Ki of 0.337 µM.

Take B42: affinity was put at a Ki of 0.749 µM.

Molecule B43 registered a Ki of 0.575 µM.

B44 displayed a Ki of 0.358 µM.

In turn, B45 registered a Ki of 0.104 µM.

With B46, the affinity corresponds to a Ki of 0.335 µM.

In turn, B47 registered a Ki of 0.179 µM.

As to B48, the Ki amounted to 0.935 µM.

Take B49: the Ki worked out at 0.0775 µM.

As to B50, affinity was put at a Ki of 0.158 µM.

The values are drawn from US20210122804A1, “PEPTIDE LIGANDS FOR BINDING TO CD38” (BicycleTx Limited, priority 2018, published 2021).
